Measurements reported in patent publication EP2064211B1, “IMIDAZO[1,2-A]PYRIDINE HYDROXYMATE COMPOUNDS THAT ARE INHIBITORS OF HISTONE DEACETYLASE” (MEI Pharma, Inc., priority 2006, dated 2008).

Amino acid sequences for entries named in this document (tags omitted).
UniProt Q13547, whole entry: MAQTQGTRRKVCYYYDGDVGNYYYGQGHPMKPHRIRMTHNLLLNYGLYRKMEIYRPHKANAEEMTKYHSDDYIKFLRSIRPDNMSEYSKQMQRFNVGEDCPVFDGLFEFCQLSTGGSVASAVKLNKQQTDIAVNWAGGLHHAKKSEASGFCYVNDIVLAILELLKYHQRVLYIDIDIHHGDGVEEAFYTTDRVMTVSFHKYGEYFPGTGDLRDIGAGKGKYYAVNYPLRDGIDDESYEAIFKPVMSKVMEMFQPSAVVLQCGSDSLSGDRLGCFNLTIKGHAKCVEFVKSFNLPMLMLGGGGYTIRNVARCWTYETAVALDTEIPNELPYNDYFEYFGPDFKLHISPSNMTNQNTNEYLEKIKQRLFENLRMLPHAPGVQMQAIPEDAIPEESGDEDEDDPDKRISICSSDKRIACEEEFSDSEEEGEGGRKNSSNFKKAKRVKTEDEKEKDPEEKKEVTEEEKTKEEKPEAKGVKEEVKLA

Biological target: T1, HDAC1 enzyme (Homo sapiens, UniProt Q13547)
T1 construct: Amplification of human HDAC1 coding region from this cDNA library was cloned separately into the baculovirus expression pDEST20 vector; made in house; host or cells: SF9 insect cells (baculovirus, pDEST20 vector)
Test: In vitro HDAC assay for determination of IC50 values (BIOMOL fluorescent-based HDAC activity assay)
Format: biochemical
Settings: recombinant GST-HDAC1, 500 uM Flur de lys substrate, room temperature 2 h; read-out: IC50 (HDAC 1)
Experimental: Human cDNA library was prepared using cultured SW620 cells. Amplification of human HDAC1 coding region from this cDNA library was cloned separately into the baculovirus expression pDEST20 vector (GATEWAY Cloning Technology, Invitrogen Pte Ltd). The pDEST20-HDAC1 construct was confirmed by DNA sequencing. Recombinant baculovirus was prepared using the Bac-To-Bac method following the manufacturer's instruction (Invitrogen Pte Ltd). Baculovirus titer was determined by plaque assay to be about 10^8 PFU/ml.
Expression of GST-HDAC1 was done by infecting SF9 cells (Invitrogen Pte Ltd) with pDEST20-HDAC1 baculovirus at MOI=1 for 48 h. Soluble cell lysate was incubated with pre-equilibrated Glutathione Sepharose 4B beads (Amersham) at 4°C for 2 h. The beads were washed with PBS buffer for 3 times. The GST-HDAC1 protein was eluted by elution buffer containing 50 mM Tris, pH8.0, 150mM NaCl, 1% Triton X-100 and 10mM or 20mM reduced Glutathione. The purified GST-HDAC1 protein was dialyzed with HDAC storage buffer containing 10mM Tris, pH7.5, 100mM NaCl and 3mM MgCl2. 20% Glycerol was added to purified GST-HDAC1 protein before storage at -80°C.
The assay has been carried out in 96 well format and the BIOMOL fluorescent-based HDAC activity assay has been applied. The reaction composed of assay buffer, containing 25 mM Tris pH 7.5, 137 mM NaCl, 2.7 mM KCl, 1 mM MgCl2, 1 mg/ml BSA, tested compounds, an appropriate concentration of HDAC1 enzyme, 500 uM Flur de lys generic substrate for HDAC1 enzyme and subsequently was incubated at room temperature for 2 h. Flur de lys Developer was added and the reaction was incubated for 10 min. Briefly, deacetylation of the substrate sensitizes it to the developer, which then generates a fluorophore. The fluorophore is excited with 360 nm light and the emitted light (460 nm) is detected on a fluorometric plate reader (Tecan Ultra Microplate detection system, Tecan Group Ltd.).
The analytical software, Prism 4.0 (GraphPad Software Inc) has been used to generate IC50 from a series of data. […]

IC50	Structure (SMILES)
260 nM	CCC(C)CN(CC)Cc1c(C(C)(C)C)nc2cc(C=CC(=O)NO)ccn12 (stereo not drawn) [Compound 19, 3-(2-tert-Butyl-3-{[ethyl-(2-methyl-butyl)-amino]-methyl}-imidazo[1,2-a]pyridin-7-yl)-N-hydroxy-acrylamide]
20 nM	CCN(CCC(C)C)Cc1c(C)nc2cc(C=CC(=O)NO)ccn12 [Compound 49, 3-(3-{[Ethyl-(3-methyl-butyl)-amino]-methyl}-2-methyl-imidazo[1,2-a]pyridin-7-yl)-N-hydroxy-acrylamide]
20 nM	CCN(CCC(C)C)Cc1c(CC(C)C)nc2cc(C=CC(=O)NO)ccn12 [Compound 60, 3-(3-{[Ethyl-(3-methyl-butyl)-amino]-methyl}-2-isobutyl-imidazo[1,2-a]pyridin-7-yl)-N-hydroxy-acrylamide]
